The values below come from patent US6921811B2, “Bioactive coating composition and methods” (BioSurface Engineering Technologies, Inc., priority 1998, dated 2005).

The test system of this assay is C3H10T1/2 cells. In words: Attachment of C3H10T1/2 cells to silyl-heparin coated wells complexed with adhesive molecules, crystal violet. It is filed as cell-based, murine. Also noted: unit not given here. The conditions noted are these: after two hours; hydrogel-polystyrene 96-well plates coated with silyl-heparin complexes and the listed adhesive molecule; proteins 100 μg/ml, serum undiluted. Here is the method:
Attachment of C3H10T1/2 cells after two hours to wells of 96-well, hydrogel-polystyrene plates coated with silyl-heparin complexes and the listed adhesive molecule was detected by staining with crystal violet. All proteins were used at a concentration of 100 μg/ml in buffered saline. Serum was used without dilution. Statistical significance was assessed relative to the values from buffered saline using Student's t-test, with * indicating p<0.05, ** indicating p<0.01 and *** indicating p<0.001.

As to “albumin: protein used at 100 μg/ml on silyl-heparin coated wells”, the “attachment of C3H10T1/2 cells by crystal violet staining, Average ± S.E.” value is recorded as 0.08 ± 0.00.
